Experimental data reported in PubChem BioAssay AID588852 (The Scripps Research Institute Molecular Screening Center, 2011).
Only a part is listed here, and it is no random draw. Active and inactive are the calls of the source.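 Rule for the calls: active = percent inhibition above its own plate's cutoff, namely the mean of that plate's compound wells plus 3 SD; inactive = the rest.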

Amino acid sequences for entries named in this document (tags omitted).
UniProt P11229, whole entry: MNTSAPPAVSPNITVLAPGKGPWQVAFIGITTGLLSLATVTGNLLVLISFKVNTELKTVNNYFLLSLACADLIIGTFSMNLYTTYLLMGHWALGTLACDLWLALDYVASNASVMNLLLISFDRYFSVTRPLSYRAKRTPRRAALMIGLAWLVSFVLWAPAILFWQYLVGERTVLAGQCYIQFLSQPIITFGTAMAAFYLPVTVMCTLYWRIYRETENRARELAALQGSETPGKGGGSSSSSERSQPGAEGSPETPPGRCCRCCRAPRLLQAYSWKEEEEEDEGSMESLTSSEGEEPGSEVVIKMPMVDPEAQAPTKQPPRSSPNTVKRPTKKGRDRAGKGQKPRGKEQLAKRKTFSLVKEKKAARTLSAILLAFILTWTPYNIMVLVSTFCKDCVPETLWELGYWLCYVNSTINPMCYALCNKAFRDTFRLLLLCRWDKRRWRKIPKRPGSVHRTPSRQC

target: Muscarinic acetylcholine receptor M1 (Homo sapiens) (UniProt P11229); experiment: CHRM1 blockers of acetylcholine calcium response – CHO-K1 cells, Fluo-8 calcium fluorescence, 1536-well, primary screen (AID 588852); conditions: CHO-K1 hM1, Fluo-8 calcium fluorescence, ACh EC80 antagonist; at 3 µM; hits give high values;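 note: peak over basal fluorescence ratio during 140 s after agonist addition; 0% = ACh EC80 plus DMSO and 100% = DMSO alone without agonist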

Q: How did the inhibition turn out when `O=c1[nH]c2ccccc2n1C1CCN(C(c2cccs2)c2nnnn2C2CCCCC2)CC1` (stereo not given) was run?
A: inactive: -7.61%

Q: For `COc1ccc(C(=O)NCC2(N3CCOCC3)CCCCC2)cc1OC`, which inhibition is on record?
A: inactive: -6.96%

Q: How did the inhibition turn out when `O=c1[nH]c2ccccc2n1C1CCN(C(c2ccnc3ccccc23)c2nnnn2C2CCCC2)CC1` (stereo not given) was run?
A: inactive: 18.9%

Q: For `CCCCn1nnnc1C(c1ccccc1)N1CCC(n2c(=O)[nH]c3ccccc32)CC1` (stereo not given), which inhibition is on record?
A: inactive: 27.9%

Q: With `COc1cc(C(=O)NCC2(N3CCOCC3)CCCCC2)cc(OC)c1C` as the compound, how does the inhibition read?
A: inactive: -8.5%

Q: How did the inhibition turn out when `O=C(NCC1(N2CCOCC2)CCCCC1)c1cc(Br)ccc1Cl` was run?
A: inactive: -9.53%

Q: With `O=c1[nH]c2ccccc2n1C1CCN(C(c2cccs2)c2nnnn2C2CCCC2)CC1` (stereo not given) as the compound, how does the inhibition read?
A: inactive: -21.7%

Q: For `CCCCn1nnnc1C(c1cccc(OC)c1OC)N1CCC(n2c(=O)[nH]c3ccccc32)CC1` (stereo not given), which inhibition is on record?
A: inactive: 30.6%

Q: Which inhibition does the source give for `COc1cccc(C(c2nnnn2C(C)(C)C)N2CCC(n3c(=O)[nH]c4ccccc43)CC2)c1OC` (stereo not given) here?
A: inactive: -15.5%

Q: With `CCOC(=O)N1CCC(Nc2ccc(C)cc2)CC1` as the compound, how does the inhibition read?
A: inactive: -13.7%

Q: For `N/C(=N\O)c1c(N)no[n+]1[O-]`, which inhibition is on record?
A: inactive: -10%

Q: `N#Cc1ccc(C(=O)NCC2(N3CCCCC3)CCCCC2)cc1` was tested. Which inhibition did it give?
A: inactive: 0.43%

Q: For `CC(C)(C)OC(=O)N1CCC(N(C(=O)c2ccccc2)c2ccc(Cl)cc2)CC1`, which inhibition is on record?
A: inactive: -7.39%

Q: `CC(C)(C)n1nnnc1C(c1cccc2ccccc12)N1CCC(n2c(=O)[nH]c3ccccc32)CC1` (stereo not given) was tested. Which inhibition did it give?
A: inactive: -28.5%

Q: How did the inhibition turn out when `CN(C)C1(CNC(=O)c2cccc(C#N)c2)CCCCC1` was run?
A: inactive: -8.6%

Q: Which inhibition does the source give for `c1ccc(CN2CCC(Nc3ccccc3)CC2)cc1` here?
A: inactive: -14.8%

Q: For `Cc1cc(N(CCCl)CCCl)ccc1C=O`, which inhibition is on record?
A: inactive: -19.7%

Q: Which inhibition does the source give for `CCCN1CCC(Nc2cc(OC)cc(OC)c2)CC1` here?
A: inactive: -26.4%

Q: For `O=c1[nH]c2ccccc2n1C1CCN(C(c2ccccc2)c2nnnn2C2CCCC2)CC1` (stereo not given), which inhibition is on record?
A: inactive: -19.3%

Q: For `Cc1ccc(C(=O)NCC2(N3CCCCC3)CCCCC2)o1`, which inhibition is on record?
A: inactive: -6.63%

Q: For `Fc1ccccc1NC1CCN(Cc2ccccc2)CC1`, which inhibition is on record?
A: inactive: -10.4%

Q: With `Cc1ccc(NC2(C#N)CCN(Cc3ccccc3)CC2)cc1` as the compound, how does the inhibition read?
A: inactive: -9.86%

Q: `CC(=O)N(c1ccccc1)C1CCNCC1` was tested. Which inhibition did it give?
A: inactive: -16%

Q: `COc1cccc(C(c2nnnn2C2CCCCC2)N2CCC(n3c(=O)[nH]c4ccccc43)CC2)c1OC` (stereo not given) was tested. Which inhibition did it give?
A: inactive: 8%

Q: `CCC(c1nnnn1C1CCCCC1)N1CCC(n2c(=O)[nH]c3ccccc32)CC1` (stereo not given) was tested. Which inhibition did it give?
A: inactive: -20.1%

Q: Which inhibition does the source give for `O=c1[nH]c2ccccc2n1C1CCN(C(c2ccnc3ccccc23)c2nnnn2C2CCCCC2)CC1` (stereo not given) here?
A: inactive: -17.9%

Q: For `COc1cc(OC)cc(C(=O)NCC2(N3CCCCC3)CCCCC2)c1`, which inhibition is on record?
A: inactive: -16.8%

Q: How did the inhibition turn out when `O=C(NCC1(N2CCCCC2)CCCCC1)c1ccco1` was run?
A: inactive: -10.6%

Q: With `Cn1c(=O)[nH]cc(N(CCCl)CCCl)c1=O` as the compound, how does the inhibition read?
A: inactive: 18.8%

Q: Which inhibition does the source give for `CN(C)c1ccc(C(=O)NCC2(N3CCCCC3)CCCCC2)cc1` here?
A: inactive: -13.2%

Q: With `Cc1ccccc1NC1(C#N)CCN(Cc2ccccc2)CC1` as the compound, how does the inhibition read?
A: inactive: -2.3%

Q: How did the inhibition turn out when `CC(C)(C)n1nnnc1C(c1ccnc2ccccc12)N1CCC(n2c(=O)[nH]c3ccccc32)CC1` (stereo not given) was run?
A: inactive: -35.1%

Q: How did the inhibition turn out when `CCN1CCC(Nc2cccc(F)c2)CC1` was run?
A: inactive: 2.35%

Q: For `COc1ccc(C(c2nnnn2C2CCCCC2)N2CCC(n3c(=O)[nH]c4ccccc43)CC2)cc1` (stereo not given), which inhibition is on record?
A: inactive: 1.76%

Q: With `CC(C)(C)OC(=O)N1CCC(Nc2ccccc2)CC1` as the compound, how does the inhibition read?
A: inactive: -2.92%

Q: With `O=C(O)C1(Nc2ccccc2)CCN(Cc2ccccc2)CC1` as the compound, how does the inhibition read?
A: inactive: -17.7%

Q: How did the inhibition turn out when `CCCOc1ccc(C(=O)NCC2(N(C)C)CCCCC2)cc1` was run?
A: inactive: 7.32%

Q: Which inhibition does the source give for `O=c1[nH]c2ccccc2n1C1CCN(C(c2cc3ccccc3o2)c2nnnn2C2CCCC2)CC1` (stereo not given) here?
A: inactive: -21%

Q: How did the inhibition turn out when `CCOc1ncccc1C(=O)NCC1(N2CCOCC2)CCCCC1` was run?
A: inactive: 14.2%

Q: For `CN1CCC(Nc2ccc(F)c(Cl)c2)CC1`, which inhibition is on record?
A: inactive: -12.5%

Q: `CN1CCC(Nc2ccc(Cl)cc2)CC1` was tested. Which inhibition did it give?
A: inactive: -18.2%

Q: `COc1cccc(C(=O)N(c2cc(C)cc(C)c2)C2CCN(C(=O)OC(C)(C)C)CC2)c1` was tested. Which inhibition did it give?
A: inactive: 7.93%

Q: `COc1cc(OC)cc(C(=O)NCC2(N3CCOCC3)CCCCC2)c1` was tested. Which inhibition did it give?
A: inactive: -22.9%

Q: For `COc1cccc(C(c2nnnn2C2CCCC2)N2CCC(n3c(=O)[nH]c4ccccc43)CC2)c1OC` (stereo not given), which inhibition is on record?
A: inactive: -26.1%

Q: Which inhibition does the source give for `CSc1ccccc1C(=O)NCC1(N2CCCCC2)CCCCC1` here?
A: inactive: -8.65%

Q: With `Cc1cccc(NC2(C#N)CCN(Cc3ccccc3)CC2)c1` as the compound, how does the inhibition read?
A: inactive: -13.9%

Q: How did the inhibition turn out when `COc1ccc(C(=O)NCC2(N3CCCCC3)CCCCC2)cc1` was run?
A: inactive: -1.5%

Q: `CCC(c1nnnn1C1CCCC1)N1CCC(n2c(=O)[nH]c3ccccc32)CC1` (stereo not given) was tested. Which inhibition did it give?
A: inactive: -19.9%

Q: Which inhibition does the source give for `CC(C)(C)OC(=O)N1CCC(N(C(=O)c2ccccc2)c2ccc(F)cc2)CC1` here?
A: inactive: -11.1%

Q: With `COc1ccc(C(=O)NCC2(N3CCCCC3)CCCCC2)c(OC)c1OC` as the compound, how does the inhibition read?
A: inactive: 3.35%

Q: How did the inhibition turn out when `O=C(NCC1(N2CCCCC2)CCCCC1)c1ccc(=O)[nH]c1` was run?
A: inactive: -4.68%

Q: `CCCCn1nnnc1C(c1cccs1)N1CCC(n2c(=O)[nH]c3ccccc32)CC1` (stereo not given) was tested. Which inhibition did it give?
A: inactive: -6.88%

Q: For `O=C(NCC1(N2CCCCC2)CCCCC1)c1cccs1`, which inhibition is on record?
A: inactive: -10.7%

Q: `CCCCn1nnnc1C(CC)N1CCC(n2c(=O)[nH]c3ccccc32)CC1` (stereo not given) was tested. Which inhibition did it give?
A: inactive: -13.8%

Q: With `O=c1[nH]c2ccccc2n1C1CCN(C(c2cc3ccccc3o2)c2nnnn2C2CCCCC2)CC1` (stereo not given) as the compound, how does the inhibition read?
A: inactive: -18.3%

Q: With `O=C(NCC1(N2CCCCC2)CCCCC1)c1ccc(Cl)s1` as the compound, how does the inhibition read?
A: inactive: 0.03%

Q: How did the inhibition turn out when `N#CC1(Nc2ccccc2)CCN(Cc2ccccc2)CC1` was run?
A: inactive: -11.2%

Q: For `COc1ccc(Cl)cc1C(=O)NCC1(N2CCOCC2)CCCCC1`, which inhibition is on record?
A: inactive: -5.43%

Q: For `CCOC(=O)N1CCC(Nc2ccc(OC)cc2)CC1`, which inhibition is on record?
A: inactive: -3.86%

Q: `CCCCn1nnnc1C(c1ccc(OC)cc1)N1CCC(n2c(=O)[nH]c3ccccc32)CC1` (stereo not given) was tested. Which inhibition did it give?
A: inactive: 24.2%
